In this data set the test system is PC-3 cells. As to conditions: PC-3, 1.1 µM (IC50), 3 days.

Take `COc1cccc2c1C(=O)c1c(O)c3c(c(O)c1C2=O)C[C@@](O)(C(=O)CO)C[C@@H]3O[C@H]1C[C@H](N)[C@H](O)[C@H](C)O1` [DOX, Doxorubicin]: the “Tail Moment” value amounted to 24.57.

The values above are taken from paper PMC10970924, “Anticancer Potential of Pyridoxine-Based Doxorubicin Derivatives: An In Vitro Study” (Life, 2024).
